## Apparent affinities of Ab-14 variants for a coronavirus HR2 peptide

Antigen: PDVDLGDISGINAS, a 14-residue peptide of the SARS-CoV-2 spike HR2 region.

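These sequences belong to a second round, designed from the earlier measurements on random variants of the parent. Several design methods are mixed in this list. The assay is AlphaSeq: two haploid yeast populations carry antibody and antigen on their surface. Pairs that bind mate more often; barcode pairs of the diploids are counted by sequencing. Read counts were normalised to the haploid input and turned into Kd by a linear fit to BCL2-family pairs of known affinity, for each replicate. The assay was run in six technical replicates.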

Parent scFv Ab-14: VH joined to VL by a (GGGGS)3 linker. Changes lie in the heavy chain CDRs alone.
VH: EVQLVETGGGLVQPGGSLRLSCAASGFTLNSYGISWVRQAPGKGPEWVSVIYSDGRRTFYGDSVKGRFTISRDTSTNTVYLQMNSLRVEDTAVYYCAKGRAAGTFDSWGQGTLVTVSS
VL: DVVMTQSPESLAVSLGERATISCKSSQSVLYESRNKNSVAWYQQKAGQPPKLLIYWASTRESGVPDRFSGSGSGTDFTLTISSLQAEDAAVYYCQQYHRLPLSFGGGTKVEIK

Variants are written as CDR1, CDR2 and CDR3 of the heavy chain (limits as in the source). Parent: GFTLNSYGIS, VIYSDGRRTFYGDSVK, GRAAGTFDS. The read-out is the apparent dissociation constant on a log10 scale (nM): the lower, the stronger. The mean shown is taken over the replicates in which the pair was detected. "nd" means that the variant was in the library but no mating with the target was seen in any replicate; the authors take this as a sign of poor binding, and no number exists. The parent sequence was in this pool as ten entries: three were never detected, three once, and four in most replicates, with averages from 0.34 to 2.37. A sequence that the file lists under several names has all its replicates pooled. The range of this assay differs from that of the first round, and the authors advise against merging the two. Background: pairings of all heavy chain designs with three empty control strains gave a value in 1% of cases (median 2.08, 5th percentile 0.84). Values in that range, when seen in few replicates, are hard to tell from nonspecific mating. In the paper, a design with two or fewer of six values counts as a poor binder.

CDR-H1 | CDR-H2 | CDR-H3 | mean log10 Kd (nM) | detected
KFSLNSYGIS | VIYSDGRRTFYSDSVK | GRQAGTFDS | 1.35 | 6/6
GFELNSYGIS | VIYADGRRTFMGDSVK | GRAAGTNTS | 1.98 | 2/6
LFTLNEYGIS | VIYSDGRRTFYVDSVK | GRTAGTFDS | -0.22 | 6/6
GFNLNEYGIS | VIYADGYRRAYANSVK | GYNMSLGVT | nd | 0/6
GFNLNSYGIS | VIYSDGRRTFYDDSVK | GQIAGTFDS | 0.44 | 6/6
GFDLDEYGIS | VIYADGQRTAYADSVK | GNQAGTFDQ | 0.43 | 6/6
GFQLNDYGIS | VIYSDGRRTFYHDSVK | GRAAGTFDS | 0.71 | 6/6
GFSLNSYGIS | VIYSDGRRTFIGDSVK | ARAAGTFDT | nd | 0/6
GPSLDEYGIS | VIYADGVRQQYQDDVK | GQIGGFVNY | nd | 0/6
GFELDSYGIS | VIYSDGRRTFYGDSVK | GRAAGTFDS | 1.14 | 6/6
KFTLNSYGIS | VIYSDGRRTFYEDSVK | GRAAGTFDQ | nd | 0/6
GFQLNNYGIS | VIYSDGRRTFYSDSVK | GRAATFFDS | nd | 0/6
GFDVNEQGIS | VIYADGTRTAYANTVK | GKVVGVFGD | nd | 0/6
GFPIDEYGIS | VIYADGRRTVYSDNVK | GNYGLSIAV | 0.44 | 6/6
GDFLDEYGIS | VIYADGSRSSYADKVK | GHNFGLKMV | nd | 0/6
GFELNEYGIS | VIYSDGHRTFYGDSVK | GRTAGTFDS | -0.53 | 6/6
GFTLNEYGIS | VIYSDGRRTFYGDSVK | GRAAVTDDD | nd | 0/6
GFNLNSYGIS | VIYSDGRRTFYGDSVK | GRAAGTFSL | 2.90 | 1/6
GFDLNEYGIS | VIYADGVRVAYQNQVK | GNIIGSFTF | nd | 0/6
GFELNEYGIS | VIYSDGRRTFYGDSVK | GRYAGTFDS | 0.51 | 6/6
GFDLDEYGIS | VIYADGMRTFYTDSVK | GEAAGTFDM | 0.06 | 6/6
GFTLNSYGIS | VIYSDGYRTFYMDSVK | GRAYGTFDS | nd | 0/6
GFTLNSYGIS | VIYSDGRRTFYGDSVK | GRSAGTFDM | 1.20 | 1/6
GFDLNSYGIS | VLYSDGRRTFYGDSVK | GRCAVTFCS | nd | 0/24
GFDLNEYGIS | VIYADGIRTAYADSVK | GENAGTFDM | -0.24 | 6/6
GFTLNDYGIS | VIYSDGRRTFYGDSVK | GRAAGTFVS | nd | 0/6
GFDLESYGIS | VIYADGSRTAYADSVK | GNVAGTFDV | -0.41 | 6/6
GFNLNEHGIS | VIYSDGRRTFYADSVK | GRAAGTFVS | nd | 0/6
GFTLNEYGIS | VIYSDGRRTFYGDSVK | GRNAGTFDK | 0.91 | 6/6
GFTLNSYGIS | VIYSDGRRTMYGDSVK | SEAAGTFDS | nd | 0/6
GFWLNSYGIS | VIYSDGRRTFYKDSVK | GQTAGTFDS | 1.72 | 3/6
GFTLNSYGIS | VIYSDGYRTFYSDSVK | GRAAGTFVS | nd | 0/6
GFQLNSYGIS | VIYADGRRTFYGDSVK | GKAAGTFDS | 0.41 | 6/6
GFNLNEYGIS | VIYADGRRKFYADSVK | GNVAGTFDS | 0.09 | 6/6
GFTLNSYGIS | VIYSDGSRTFYQDSVK | GRAAGTFDT | 1.98 | 6/6
GFNLDDMGIS | VIYADGERTAYSDSVK | GHEGGIMNV | nd | 0/6
GFDLDEYGIS | VIYADGMRTAYADSVK | GNTAGTFDI | 0.33 | 6/6
GFTLNSYGIS | VIYSDGRRTFYGDSVK | GKLAGTFDS | 0.94 | 5/12
GFTLNEYGIS | VIYSDGRRTFYGDSVK | GRIAGTFDQ | 0.61 | 6/6
GFDLEEYGIS | VIYADGRRTFYSDSVK | GEIAGTFDS | -0.70 | 6/6
GFTLNSYGIS | VIYSDGMRTFYSDSVK | GRSAGTFDS | 0.12 | 6/6
GFTLYEYGIS | VIYSDGRRTFYGDSVK | GRAAGTFDQ | 1.75 | 3/6
GFTLDSYGVS | VIYSDGRRTFYTDQVK | GRASGTFDS | nd | 0/6
GFDLNEYGIS | VIYADGKRSYATDSVK | GGYNIGASV | 2.14 | 1/6
GFDLNSYGIS | VIYSDGRRTAYGDAVK | GRAAGTFDS | -0.73 | 6/6
GFTLNEYGIS | VIYSDGRRTFYGGSVK | GSAAGTFSS | nd | 0/6
GFDLDEYGIS | VIYADGRRTAYADSVK | GENAGTFDT | -0.47 | 6/6
GFDLNSYGIS | VIYSDGWRTFYVDSVK | GRTAGTFDS | 1.36 | 5/6
GFDLNEYGIS | VIYADGRRSFYADSVK | GQLAGTFDM | -0.37 | 6/6
SFTLNSYGIS | VIYADGRRTFYKDSMK | GRAAQTNKS | nd | 0/6
GFDLNEYGIS | VIYADGMRTAYADSVK | GNVAGTFDQ | -0.43 | 6/6
GFSLNSYGIS | VIYSDGRRTFYADSVK | GMLAGTFDS | -0.27 | 6/6
GFSLNEYGIS | VIYSDGRRTFYGDSVK | GWAAGTFDT | 1.09 | 6/6
GFDLNEYGIS | VIYADGRRTAYADNVK | GNTAGTFDV | -0.44 | 6/6
GFALNEYGIS | VIYADGFRRSYIDKVK | GHIAGEFSV | nd | 0/6
GFDLNEYGIS | VIYADGKRTAYADSVK | GEVAGTFDM | -0.44 | 6/6
GFTLNSYGIS | VIYADGRRTFYADSVK | GRAAGTVDS | 1.48 | 6/6
GFTLNSYGIS | VIYSDGRRTFYADSVK | GWVAGTFDS | 0.74 | 6/6
GFTLELYGIS | VIYSDGRRTFYGDSVK | GRIAGTFDS | 0.74 | 1/6
GFTLNSYGIS | VIYSDGRRTFYGDQVK | GEAAGTFNY | 1.33 | 1/6
GFDLDEYGIS | VIYADGVRTAYADDVK | GNVAGTFDV | -0.62 | 6/6
GFNLNDYGIQ | VIYSDGRRTFYADSVK | GQAAGTFDQ | 1.36 | 2/6
GFDLNSYGIS | VIYSDGRRTFYADRVK | GQTAGTFDS | 0.39 | 6/6
GFTLNEYGIS | VIYSDGRRTFYGDHVK | GRAALTFIS | nd | 0/6
GFTLNSYGVS | VIYSDGRRCFYGDSVK | GRAAGTFDS | nd | 0/6
GFTLNSYGIS | VIYSDGRRTFYGDSVK | GRVAGTFDF | 1.33 | 1/6
GETLNNYGIS | VIYSDGRRTFYGDSVK | GRAAGTFDS | 1.57 | 5/6
GENIEEYGIS | VIYADGRRTAYAEPVK | GDSGGTIDT | 1.59 | 1/6
GFSLNEYGIS | VIYADGFRAVYTDKVK | GVTGGNFSS | -0.14 | 6/6
GNDLNEYGIS | VIYADGQRTQYASSFK | GDLAGYFES | nd | 0/6
GFTLNSYGIS | VIYSDGRRTFYDDSVK | GRGAGTDDS | nd | 0/6
GFTLESYGIS | VIYSDGRRTFYGDSVK | GRQAGTFDS | 2.22 | 4/6
GFNIDEFGIS | VIYADGKRTSYSDSVK | GQLGNAFDL | nd | 0/6
GFLLNEYGIS | VIYSDGMRTFYGDSVK | GRTAGTFDS | 0.23 | 6/6
GFTLNEYGIS | VIYSDGRRTFYTDSVK | GRCAGTFDS | 1.50 | 2/6
GFDLNEYGIS | VIYADGKRTYYADSVK | GQVAGTFDQ | -0.19 | 6/6
GKQLDEYGIS | VIYADGKRTHYVENVK | GQFGGNLFD | nd | 0/6
GFTLDSYGIS | VIYADGRRTFYGDRVK | GRAAGTFDL | 0.20 | 6/6

Excerpt, the first 10 entries:

CDR-H1 | CDR-H2 | CDR-H3 | mean log10 Kd (nM) | detected
KFSLNSYGIS | VIYSDGRRTFYSDSVK | GRQAGTFDS | 1.35 | 6/6
GFELNSYGIS | VIYADGRRTFMGDSVK | GRAAGTNTS | 1.98 | 2/6
LFTLNEYGIS | VIYSDGRRTFYVDSVK | GRTAGTFDS | -0.22 | 6/6
GFNLNEYGIS | VIYADGYRRAYANSVK | GYNMSLGVT | nd | 0/6
GFNLNSYGIS | VIYSDGRRTFYDDSVK | GQIAGTFDS | 0.44 | 6/6
GFDLDEYGIS | VIYADGQRTAYADSVK | GNQAGTFDQ | 0.43 | 6/6
GFQLNDYGIS | VIYSDGRRTFYHDSVK | GRAAGTFDS | 0.71 | 6/6
GFSLNSYGIS | VIYSDGRRTFIGDSVK | ARAAGTFDT | nd | 0/6
GPSLDEYGIS | VIYADGVRQQYQDDVK | GQIGGFVNY | nd | 0/6
GFELDSYGIS | VIYSDGRRTFYGDSVK | GRAAGTFDS | 1.14 | 6/6

Reference: Li et al. 2023, doi:10.1038/s41467-023-39022-2. File: FLAb, binding data.